Earlier results, collected in patent US20120309811A1, “P-GLYCOPROTEIN-SPECIFIC NON-COMPETITIVE PEPTIDE AND PEPTIDOMIMETIC MODULATORS” (UNIVERSITE CLAUDE BERNARD - LYON 1, priority 2009, published 2012).

Chains of the proteins cited; added tags and fusions are not shown.
UniProt P08183, whole entry: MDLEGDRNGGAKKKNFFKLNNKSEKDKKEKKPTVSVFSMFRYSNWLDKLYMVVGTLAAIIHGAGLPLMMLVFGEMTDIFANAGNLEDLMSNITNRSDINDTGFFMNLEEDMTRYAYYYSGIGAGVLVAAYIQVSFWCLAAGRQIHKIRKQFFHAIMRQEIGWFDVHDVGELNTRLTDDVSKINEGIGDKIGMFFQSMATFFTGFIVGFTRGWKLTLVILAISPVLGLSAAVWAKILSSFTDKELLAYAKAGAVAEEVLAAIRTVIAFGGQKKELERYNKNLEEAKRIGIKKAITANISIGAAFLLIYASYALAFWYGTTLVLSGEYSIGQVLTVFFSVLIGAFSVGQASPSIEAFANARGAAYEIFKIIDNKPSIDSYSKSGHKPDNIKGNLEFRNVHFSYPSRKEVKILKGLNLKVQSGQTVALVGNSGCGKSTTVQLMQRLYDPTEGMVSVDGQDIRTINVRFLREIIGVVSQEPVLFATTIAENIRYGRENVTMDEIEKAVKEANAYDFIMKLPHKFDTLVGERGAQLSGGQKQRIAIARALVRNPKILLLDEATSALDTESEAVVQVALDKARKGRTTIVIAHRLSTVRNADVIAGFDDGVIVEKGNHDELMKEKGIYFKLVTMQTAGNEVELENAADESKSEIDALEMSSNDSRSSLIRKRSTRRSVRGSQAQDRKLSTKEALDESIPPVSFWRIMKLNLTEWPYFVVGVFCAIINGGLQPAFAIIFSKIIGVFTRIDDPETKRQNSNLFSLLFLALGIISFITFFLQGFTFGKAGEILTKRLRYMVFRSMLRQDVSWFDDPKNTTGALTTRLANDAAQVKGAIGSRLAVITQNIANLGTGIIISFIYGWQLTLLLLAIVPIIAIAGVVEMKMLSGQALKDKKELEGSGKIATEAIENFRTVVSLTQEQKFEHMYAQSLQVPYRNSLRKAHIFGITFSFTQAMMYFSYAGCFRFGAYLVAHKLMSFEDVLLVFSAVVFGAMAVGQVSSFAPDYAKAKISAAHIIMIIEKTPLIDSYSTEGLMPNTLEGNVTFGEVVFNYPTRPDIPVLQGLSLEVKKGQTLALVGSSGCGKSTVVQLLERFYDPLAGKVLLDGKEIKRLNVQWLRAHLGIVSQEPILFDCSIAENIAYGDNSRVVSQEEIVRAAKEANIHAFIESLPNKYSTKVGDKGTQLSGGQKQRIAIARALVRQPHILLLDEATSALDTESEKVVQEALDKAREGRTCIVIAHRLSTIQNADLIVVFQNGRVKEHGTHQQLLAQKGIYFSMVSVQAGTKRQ

Biological target: ABCB1 (Homo sapiens, UniProt P08183)
Parameters: key: the inhibitor is active (+); it is inactive (−); the effect is unknown (?)
Conditions: cited from earlier work

For `O[C@@H](COc1cccc2ncccc12)CN1CCN([C@@H]2c3ccccc3[C@@H]3[C@H](c4ccccc42)C3(F)F)CC1` [Ly335979 (zosuquidar)], the “activity of MDR inhibitor on ABCB1” value is given as “+”.
